Measured values from publication PMC3298469, “A selective and potent CXCR3 antagonist SCH 546738 attenuates the development of autoimmune diseases and delays graft rejection” (BMC Immunology, 2012).

System: C57BL/6 mice
Experiment: mouse experimental autoimmune encephalomyelitis (MOG35-55)
Format: in vivo
Details: 1700 ng daily intramuscular injection, alone

B1: IFN-β: interferon-β, a current first-line therapeutic for relapsing-remitting MS (protein, UniProt P01574 22-187, looked up)
Interferon beta: MSYNLLGFLQRSSNFQCQKLLWQLNGRLEYCLKDRMNFDIPEEIKQLQQFQKEDAALTIYEMLQNIFAIFRQDSSSTGWNETIVENLLANVYHQINHLKTVLEEKLEKEDFTRGKLMSSLHLKRYYGRILHYLKAKEYSHCAWTIVRVEILRNFYFINRLTGYLRN
- effect on disease onset and severity: significantly delayed disease onset and attenuated disease severity
